Data as given in patent publication US7667036B2, “Pyrazolo[1,5-a]pyrimidine derivatives” (Teijin Pharma Limited, priority 2004, dated 2010).

The chains behind the UniProt entries cited, without tags or fusion partners.
UniProt P49137, whole entry: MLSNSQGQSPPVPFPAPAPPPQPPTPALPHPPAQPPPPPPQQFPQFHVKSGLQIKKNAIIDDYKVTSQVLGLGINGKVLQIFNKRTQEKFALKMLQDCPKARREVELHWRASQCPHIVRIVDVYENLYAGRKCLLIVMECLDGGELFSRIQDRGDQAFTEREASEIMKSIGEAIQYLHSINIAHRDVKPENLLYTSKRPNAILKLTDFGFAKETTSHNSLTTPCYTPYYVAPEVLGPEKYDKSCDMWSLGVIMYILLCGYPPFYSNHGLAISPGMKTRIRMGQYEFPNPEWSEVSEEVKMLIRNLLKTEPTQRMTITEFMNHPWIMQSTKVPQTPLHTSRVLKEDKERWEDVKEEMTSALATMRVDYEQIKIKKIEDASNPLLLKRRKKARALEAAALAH

Each molecule was assayed against MAPKAP-K2 (Homo sapiens, UniProt P49137) (assay: MAPKAP-K2 enzyme activity inhibition assay, Method B (33P-ATP, MultiScreen-PH plate)). Details: read-out: Inhibitory activity (MAPKAP-K2 IC50 class), recombinant human MAPKAP-K2, 0.5% DMSO, 30 min room temperature.
Description: The assay of inhibitory activity was performed according to Method A described below for Compound No. 1, 2, 3, 4, 20, 21, 22, 23, 24, 25, 26, 79, 80 and 81, and Method B described below for the other compounds.
A compound was dissolved in […] to make its concentration to 20 mmol/L, and the resultant solution was stored at −20° C. The stock solution was sequentially diluted with DMSO to prepare a solution having a 200-fold concentration of the required range. Further the solution was diluted with water to 1:20 to prepare a solution having a 10-fold concentration of the required range, and an aliquot of 5 μL of each solution was used for every reaction with 50 μL. During the continuous dilution of all compounds, the final DMSO concentration was maintained at 0.5%. Compounds were routinely tested at a final concentration ranging from 100 μmol/L to 0.03 μmol/L, but were sometimes tested at a lower concentration depending upon their activity.
The reaction was initiated by adding 25 μL of a peptide substrate solution [60 μmol/L substrate peptide, 20 μmol/L ATP, 50 mmol/L Tris buffer (pH 7.5), 0.1 mmol/L EGTA, 0.1% β-mercaptoetanol, 20 mmol/L magnesium acetate, and 0.1 μCi [γ-33P]ATP (specific radio activity: approximately 110 TBq/mmol)] to 5 μL of a 5% DMSO solution of the test compound and subsequently adding 20 μL of a MAPKAP-K2 enzyme solution [10 mU recombinant human MAPKAP-K2, 50 mmol/L Tris buffer (pH 7.5), 0.1 mmol/L EGTA, 0.1% β-mercaptoethanol, 0.1% BSA]. After performing the reaction for 30 min at room temperature, an equivalent volume of 200 mmol/L phosphoric acid solution was added to terminate the reaction. Subsequently, 90 μL of the reaction product was adsorbed on a MultiScreen-PH Plate (Millipore) and then rinsed with 100 mmol/L phosphoric acid solution. After drying the plate, 30 μL of MicroScint-O (Packard BioScience) was added, and further the count per minute was measured by a scintillation counter to determine the inhibitory activity. The substrate peptide was Lys-Lys-Leu-Asn-Arg-Tlr-Leu-Ser-Val-Ala.
• % Control=(X−B)/(Tot−B)×100 • % Inhibition=100—% Control • X=count per minute of a test compound well • B=count per minute of a well without containing enzyme • Tot=count per minute of a well with DMSO solvent only, without containing the test compound (MAPKAP-K2 inhibitory activity) • IC50 value=the compound concentration at 50% inhibition

SMILES | IC50 [µM]
Cc1c(O[C@H]2CC[C@@H](N)CC2)nc2ccnn2c1Nc1ccc(Cc2ccccc2)cc1 | < 2
COCCOc1ccc(Nc2c(C)c(O[C@H]3CC[C@@H](N)CC3)nc3ccnn23)cc1 | < 2
CC(C)=CCC/C(C)=C/CNc1cc(O[C@H]2CC[C@@H](N)CC2)nc2ccnn12 | 2 to 20
CC(C)c1c(O[C@H]2CC[C@@H](N)CC2)nc2ccnn2c1Nc1ccc(F)c(Cl)c1 | 2 to 20
COc1cc(Nc2c(C)c(O[C@H]3CC[C@@H](N)CC3)nc3ccnn23)cc(OC)c1 | 2 to 20
CCOc1ccc(Nc2c(C)c(O[C@@H]3CCCNC3)nc3ccnn23)cc1 | 20 to 100
CCOc1ccc(Nc2c(C)c(O[C@H]3CC[C@@H](N)CC3)nc3ccnn23)cc1 | < 2
